From patent US20210145833A1, “Methods and Compositions for Hair Growth by Activating Autophagy” (The Regents of the University of California, priority 2018, published 2021)

Key:
p62 transcript = experiment: Quantitative RT-PCR of p62 transcript in treated skin; type: in vivo, mouse; conditions: 24 hours post-treatment, B2m internal control
Description: At 24 hours post-treatment, telogen skin samples were harvested and total RNA was isolated using TRIzol reagent (Invitrogen) from whole thickness mouse skin tissue. cDNA was synthesized using iScript Reverse Transcription Supermix (Bio-Rad). iTaq Universal SYBR Green Supermix (Bio-Rad) and a Bio-Rad CFX Connect instrument were used for quantitative RT-PCR. The primer sequences used for RT-qPCR are as follows: […]

mouse skin = conditions: visual inspection, confirmed by IL-6 and F4/80 staining
Description: (§1) Mouse dorsal skin was shaved before being collected for histological and molecular analyses. Full-thickness skin tissue was then fixed in 10% formalin solution (Sigma, HT501128) overnight and dehydrated for embedding in paraffin. […] Images were captured by Leica Aperio ScanScope AT brightfield system at ×20 magnification.

hair follicles = conditions: mice treated with 32 mM
Description: as §1

[1] = tested on: autophagy related markers; experiment: Western blot analysis of autophagy related markers in telogen skin; type: in vivo, mouse; conditions: telogen skin of mice treated for 6 hours, 24 hours, and 5 days
Description: (§2) Male mice were shaved and treated every other day starting on Postnatal Day 43. After 5 days, telogen skin samples were harvested and stage confirmed. Mouse skin tissue lysate was prepared by homogenization in T-PER Tissue Protein Extraction Buffer (Thermo Scientific, 78510) with protease inhibitors (Roche, 11836153001) and phosphatase inhibitors (Sigma, P5726) by FastPrep-24 (MP Biomedicals). Tissue and cell debris were removed by centrifugation and the lysate was boiled for 5 min in 1×SDS loading buffer containing 5% β-mercaptoethanol. Samples were then subjected to SDS-PAGE on NuPAGE Novex 12% Bis-Tris gels (Invitrogen, NP0343BOX), and western blotting was carried out with antibodies against LC3 (Novus, NB100-2220), p62 (Sigma, P0068), Phospho-Beclin-1 (Ser15) (corresponding to Ser14 in mouse) (Cell Signaling, 84966), Phospho-Beclin-1 (Ser93) (corresponding to Ser91 in mouse) (Cell Signaling, 14717), Beclin-1 (Abcam, ab207612), or GAPDH (Ambion, AM4300).

LC3 = experiment: Western blot of treated mouse skin: LC3; type: in vivo; conditions: 24 hours and 5 days post-treatment
Description: (§3) Male mice were shaved and treated every other day starting on Postnatal Day 43. After 5 days, telogen skin samples were harvested and stage confirmed. […] Tissue and cell debris were removed by centrifugation and the lysate was boiled for 5 min in 1×SDS loading buffer containing 5% β-mercaptoethanol.

[2] = tested on: Beclin 1 S91 phosphorylation; experiment: Western blot of treated mouse skin: phosphorylated Beclin 1 S91; type: in vivo
Description: as §2

[3] = tested on: Beclin 1 S14 phosphorylation; experiment: Western blot of treated mouse skin: phosphorylated Beclin 1 S14; type: in vivo; conditions: Day 5 post-treatment
Description: as §3

p62/SQSTM1 = experiment: Western blot of treated mouse skin: p62; type: in vivo; conditions: treated mouse telogen skin
Description: as §3

[4] = tested on: C57BL/6J mouse dorsal skin; experiment: Assay for hair regeneration in mice (topical treatment of shaved telogen dorsal skin)
[5] = male mice shaved Postnatal Day 57 (8-week old), topical 32 mM every other day

SMILES: O=C(O)CCC(=O)C(=O)O [α-KG, α-ketoglutarate]
- p62 transcript levels (quantitative RT-PCR) (p62 transcript): increased
- Skin irritation or inflammation (mouse skin): no evidence of skin irritation or inflammation
- H&E stained skin tissue sections (hair follicles): new hair follicles and enlarged bulbs, elongated hair shafts, and thickened dermal layers
- Autophagy associated markers, including LC3, p62, and phosphorylated Beclin 1 [1]: Induction
- Autophagy induction by Western blot analysis of LC3 (LC3): Increased autophagy induction
- Beclin 1 S91 phosphorylation (AMPK-dependent) [2]: increased
- Beclin 1 S14 phosphorylation (mTOR-dependent) [3]: increased
- p62 expression (Western blot) (p62/SQSTM1): increased
- Rapid anagen entry on whole dorsal telogen skin ([4]; among treated mice): observed from time to time
- Hair regeneration in female mice ([4]; female mice shaved Postnatal Day 58, topical 16 mM every other day, Day 26 post-treatment): stimulate hair regeneration
- Time until hair growth from the pigmented skin areas was visible ([4]; male mice shaved Postnatal Day 44, topical 32 mM every other day): 5 to 7 days
- Hair regeneration ([4]; male mice shaved Postnatal Day 44, topical 32 mM every other day, Day 39 post-treatment): induces hair regeneration; also recorded: exhibited overall hair growth; also recorded: drastically enhances hair regeneration; also recorded: exhibited robust hair growth
- Day by which full dorsal hair coverage was observed [4, 5]: ≤ 20 days
- Day on which pigmentation became visible [4, 5]: 7 days
- Hair regeneration in 8-week old animals ([4]; male mice shaved Postnatal Day 57, topical 32 mM every other day, Day 20 post-treatment, compared to 6.5-week old mice): induces faster hair regeneration; also recorded: even more dramatic
- Day post-treatment on which new anagen waves were initiated ([4]; telogen skin): 7 days

“Also recorded” adds a separate entry of the source.
